# Antibody variant affinities, Ab-14 light chain, assay 1

All variants were tested on one target, the spike HR2 peptide PDVDLGDISGINAS (SARS-CoV-2).

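Phage display of a naive human antibody library on the peptide gave the parent. AAYL50 was designed without a model: most single CDR substitutions and a random sample of double and triple ones. The assay is AlphaSeq: two haploid yeast populations carry antibody and antigen on their surface. After mating in shaken culture at 30 °C for 16 h, diploids were selected and their barcode pairs sequenced. A regression on co-assayed BCL2-family reference pairs converts the normalised counts of each replicate to an apparent Kd. The assay was run in three technical replicates.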

Parent: Ab-14, a human scFv built as VH, a (GGGGS)3 linker, VL. Only the CDRs of the light chain vary.
VH: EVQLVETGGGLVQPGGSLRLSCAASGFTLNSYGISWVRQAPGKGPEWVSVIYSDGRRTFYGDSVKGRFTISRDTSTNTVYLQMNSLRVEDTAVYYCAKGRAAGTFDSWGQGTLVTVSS
VL: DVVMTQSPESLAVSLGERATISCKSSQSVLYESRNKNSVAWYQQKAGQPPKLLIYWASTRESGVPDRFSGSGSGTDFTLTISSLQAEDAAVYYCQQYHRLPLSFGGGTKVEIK

Substitutions are numbered in sequence along the VL above, starting at 1 (not Kabat).
Affinities are written as log10 Kd with Kd in nM; a lower number is a better binder.
Averages over replicates are reported, and they cover detected replicates only.
An entry "ND" has no value in the source: the pair was not observed among the diploids in that replicate. This suggests poor binding but is not conclusive.
Parent in this assay: reference entry 0.65, copy in this library 1.68.
Three control strains display no target. For library AAYL50, 18% of the pairings with them gave a signal, with a median of 4.19 and one signal in twenty below 2.99, so weak values seen in few replicates may be background. The control count says in how many pairings with the empty strains this scFv gave a signal, with their mean in brackets.

{"changes": "A57E H98M", "log10 Kd (nM) by replicate": "ND 2.49 3.18", "mean, log10 nM": "2.83", "signal with controls": "0 of 9"}
{"changes": "W56D A57K R60Q", "log10 Kd (nM) by replicate": "0.18 0.47 0.32", "mean, log10 nM": "0.32", "signal with controls": "0 of 9"}
{"changes": "K36V A57M Q96R", "log10 Kd (nM) by replicate": "1.92 2.58 2.47", "mean, log10 nM": "2.32", "signal with controls": "3 of 9 (3.79)"}
{"changes": "V39Y S58D L102S", "log10 Kd (nM) by replicate": "ND ND ND", "mean, log10 nM": "ND", "signal with controls": "0 of 9"}
{"changes": "S26W S33D Q96S", "log10 Kd (nM) by replicate": "3.35 3.19 3.17", "mean, log10 nM": "3.24", "signal with controls": "2 of 9 (3.64)"}
{"changes": "Y31G S62M P101S", "log10 Kd (nM) by replicate": "1.83 1.95 2.18", "mean, log10 nM": "1.99", "signal with controls": "4 of 9 (4.10)"}
{"changes": "E32I N37E W56R", "log10 Kd (nM) by replicate": "2.79 1.72 2.29", "mean, log10 nM": "2.27", "signal with controls": "1 of 9 (4.63)"}
{"changes": "R60V S62M P101Q", "log10 Kd (nM) by replicate": "2.79 2.62 2.68", "mean, log10 nM": "2.70", "signal with controls": "1 of 9 (4.15)"}
{"changes": "A40V A57P P101T", "log10 Kd (nM) by replicate": "4.78 ND ND", "mean, log10 nM": "4.78", "signal with controls": "7 of 9 (4.25)"}
{"changes": "V29E K36A A40P", "log10 Kd (nM) by replicate": "ND ND ND", "mean, log10 nM": "ND", "signal with controls": "2 of 9 (3.80)"}
{"changes": "S25M A57Y R60Y", "log10 Kd (nM) by replicate": "ND ND ND", "mean, log10 nM": "ND", "signal with controls": "0 of 9"}
{"changes": "V39K S62T P101H", "log10 Kd (nM) by replicate": "ND ND ND", "mean, log10 nM": "ND", "signal with controls": "2 of 9 (3.93)"}
{"changes": "A40Y T59N Q95A", "log10 Kd (nM) by replicate": "ND ND ND", "mean, log10 nM": "ND", "signal with controls": "2 of 9 (3.34)"}
{"changes": "W56A A57S L100W", "log10 Kd (nM) by replicate": "ND ND ND", "mean, log10 nM": "ND", "signal with controls": "3 of 9 (4.31)"}
{"changes": "V29T N35M", "log10 Kd (nM) by replicate": "1.27 1.15 1.01", "mean, log10 nM": "1.14", "signal with controls": "6 of 9 (4.15)"}
{"changes": "V29D S62Y", "log10 Kd (nM) by replicate": "0.89 0.95 0.99", "mean, log10 nM": "0.94", "signal with controls": "0 of 9"}
{"changes": "A57N T59R L102Y", "log10 Kd (nM) by replicate": "ND ND ND", "mean, log10 nM": "ND", "signal with controls": "1 of 9 (4.58)"}
{"changes": "L30P E32D R60M", "log10 Kd (nM) by replicate": "ND ND ND", "mean, log10 nM": "ND", "signal with controls": "0 of 9"}
{"changes": "Y31Q S38G P101R", "log10 Kd (nM) by replicate": "ND ND ND", "mean, log10 nM": "ND", "signal with controls": "1 of 9 (4.29)"}
{"changes": "A40P R60N S103D", "log10 Kd (nM) by replicate": "ND 3.31 ND", "mean, log10 nM": "3.31", "signal with controls": "1 of 9 (2.92)"}
{"changes": "Y31E N37V L100D", "log10 Kd (nM) by replicate": "4.20 3.58 ND", "mean, log10 nM": "3.89", "signal with controls": "2 of 9 (3.91)"}
{"changes": "V29L V39L S62C", "log10 Kd (nM) by replicate": "1.10 0.98 1.01", "mean, log10 nM": "1.03", "signal with controls": "0 of 9"}
{"changes": "R34E A57I T59C", "log10 Kd (nM) by replicate": "ND ND ND", "mean, log10 nM": "ND", "signal with controls": "0 of 9"}
{"changes": "N37L W56D", "log10 Kd (nM) by replicate": "ND 3.86 ND", "mean, log10 nM": "3.86", "signal with controls": "0 of 9"}
{"changes": "Q27G V39Q P101V", "log10 Kd (nM) by replicate": "4.54 3.56 ND", "mean, log10 nM": "4.05", "signal with controls": "4 of 9 (4.14)"}
{"changes": "K24N N35L A40K", "log10 Kd (nM) by replicate": "4.50 ND ND", "mean, log10 nM": "4.50", "signal with controls": "2 of 9 (3.25)"}

Top 2 of the variants detected in all replicates, tightest first:

{"changes": "W56D A57K R60Q", "log10 Kd (nM) by replicate": "0.18 0.47 0.32", "mean, log10 nM": "0.32", "signal with controls": "0 of 9"}
{"changes": "V29D S62Y", "log10 Kd (nM) by replicate": "0.89 0.95 0.99", "mean, log10 nM": "0.94", "signal with controls": "0 of 9"}

Data: MIT Lincoln Laboratory AlphaSeq set, Engelhart et al. 2022, doi:10.1038/s41597-022-01779-4, as distributed in FLAb.